Data as given in patent US20120082623A1, “SHH Regulation and Methods Thereof” (priority 2009, published 2012).
Where two headings read alike, the source gives them in different places.

Tested on: Shh-nLZ C/C; Dat-Cre mutant animals
Conditions: mutant animals compared to litter controls

Question: With CC(N)Cc1ccccc1 (centres unmarked) [Amphetamine] as the compound, how does the “elicited DA mobilization (increased locomotion upon injection)” value (8 weeks of age) read?
Answer: undetectable

Question: What about the “elicited DA mobilization (increased locomotion upon injection)” value (28 days of age) of the same compound?
Answer: normal
